AlphaSeq binding of Ab-14 heavy chain variants to a spike HR2 peptide

The target is the same throughout: PDVDLGDISGINAS, from the HR2 region of SARS-CoV-2 spike.

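The starting antibody came from a phage panning campaign against this peptide. Designed CDR sequences, proposed from the first random library and measured here. Group labels follow the data file (Ctrl: baseline library sampled from a position-specific scoring matrix, with some repeated check sequences; Rand: our label for a block that the file lists under HC and that is probably the random mutants of the ten best first-round binders; En: ensemble of fine-tuned language models; GP: Gaussian process model; GPLM: also part of the Gaussian process libraries; HC: hill climbing; Gen: genetic algorithm; Gibbs: Gibbs sampling; a sequence that several methods proposed may carry one label only). AlphaSeq pools MATa yeast showing the antibodies with MATalpha yeast showing the peptide. The frequency of each diploid, read from paired DNA barcodes, reflects how well the two displayed proteins bind. The ratio of observed to expected reads was calibrated, replicate by replicate, on BCL2-family standards whose Kd was known from biolayer interferometry. The assay was run in six technical replicates.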

The variants keep the light chain, the linker and the frameworks of Ab-14 (scFv order VH, the linker GGGGSGGGGSGGGGS, VL).
VH: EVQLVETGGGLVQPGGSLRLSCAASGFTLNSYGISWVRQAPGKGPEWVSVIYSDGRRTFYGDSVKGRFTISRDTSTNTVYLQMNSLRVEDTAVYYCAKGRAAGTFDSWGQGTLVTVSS
VL: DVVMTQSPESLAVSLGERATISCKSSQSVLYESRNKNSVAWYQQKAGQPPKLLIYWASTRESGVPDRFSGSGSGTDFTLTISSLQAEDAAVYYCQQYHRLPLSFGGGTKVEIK

The parent's heavy chain CDRs are GFTLNSYGIS, VIYSDGRRTFYGDSVK, GRAAGTFDS; each variant's own CDRs replace them letter for letter.
The read-out is the apparent dissociation constant on a log10 scale (nM): the lower, the stronger.
Averages over replicates are reported, and they cover detected replicates only.
An entry "nd" has no value in the source: the pair was not observed among the diploids in that replicate. This suggests poor binding but is not conclusive.
A sequence that the file lists under several names has all its replicates listed entry by entry, parted by semicolons.
The parent sequence was in this pool as ten entries: three were never detected, three once, and four in most replicates, with averages from 0.34 to 2.37.
The range of this assay differs from that of the first round, and the authors advise against merging the two.
Empty control strains, which show no peptide, gave a signal in 1% of pairings with all heavy chain designs; the median was 2.08 and 95% of these signals were weaker than 0.84. No background was subtracted. The control count says in how many pairings with the empty strains this scFv gave a signal, with their mean in brackets.
The authors averaged sequences with at least three values out of six and counted those with two or fewer as poor binders.

{"CDR-H1": "GFDLNEYGIS", "CDR-H2": "VIYADGMRTYYADSVK", "CDR-H3": "GKNAGTFDV", "group": "En_Gen", "log10 Kd (nM) by replicate": "-0.22 -0.30 -0.71 -0.36 -0.39 -0.41", "mean, log10 nM": "-0.40", "control signals": "0 of 18"}
{"CDR-H1": "GFNLNSYGIS", "CDR-H2": "VIYSDGRRTFYGDDVK", "CDR-H3": "GQTAGTFDS", "group": "GP_Gibbs", "log10 Kd (nM) by replicate": "0.62 0.18 0.44 0.26 0.28 0.43", "mean, log10 nM": "0.37", "control signals": "1 of 18 (4.52)"}
{"CDR-H1": "GFTLNSHGIS", "CDR-H2": "VIYSDGRRTFYGDSVK", "CDR-H3": "GRAAGCDDS", "group": "Ctrl", "log10 Kd (nM) by replicate": "nd nd nd nd nd nd", "mean, log10 nM": "nd", "control signals": "0 of 18"}
{"CDR-H1": "GFTLDEYGIS", "CDR-H2": "VIYADGQRTFYADSVK", "CDR-H3": "GEAAGTFDI", "group": "En_HC", "log10 Kd (nM) by replicate": "-0.44 -0.52 0.29 0.09 -0.30 0.74", "mean, log10 nM": "-0.02", "control signals": "1 of 18 (0.54)"}
{"CDR-H1": "GFDLNSYGIS", "CDR-H2": "VIYSDGRRTFYGDSVK", "CDR-H3": "GRQAGTFDS", "group": "GPLM_Gen", "log10 Kd (nM) by replicate": "0.10 0.59 0.14 0.64 0.45 0.19", "mean, log10 nM": "0.35", "control signals": "0 of 18"}
{"CDR-H1": "GFTLNDYGIS", "CDR-H2": "VIYSDGRRTFYIDSVK", "CDR-H3": "GRTAGTFDS", "group": "GPLM_Gen", "log10 Kd (nM) by replicate": "0.76 0.39 0.17 0.95 0.56 0.50", "mean, log10 nM": "0.56", "control signals": "1 of 18 (2.49)"}
{"CDR-H1": "GFDLNSFGIS", "CDR-H2": "VIYSDGRRTFYLDSVK", "CDR-H3": "GQEAGTFDS", "group": "GP_HC", "log10 Kd (nM) by replicate": "0.77 0.59 1.03 0.62 -0.36 0.59", "mean, log10 nM": "0.54", "control signals": "1 of 18 (0.91)"}
{"CDR-H1": "GFSLDEYGIS", "CDR-H2": "VIYADGIRQHYSDQVK", "CDR-H3": "GVVFGNVIF", "group": "En_Gibbs", "log10 Kd (nM) by replicate": "nd nd nd nd nd nd", "mean, log10 nM": "nd", "control signals": "0 of 18"}
{"CDR-H1": "GFSLNSYGIS", "CDR-H2": "VIYADGRRTFYGDSVK", "CDR-H3": "GKVAGTFDS", "group": "GP_Gibbs", "log10 Kd (nM) by replicate": "-0.27 0.16 -0.30 -0.54 -0.77 0.07", "mean, log10 nM": "-0.27", "control signals": "0 of 18"}
{"CDR-H1": "GFDLNEYGIS", "CDR-H2": "VIYADGMRTAYADTVK", "CDR-H3": "GNVAGTFDL", "group": "En_Gen", "log10 Kd (nM) by replicate": "-0.48 -0.51 -0.02 -0.05 -0.50 0.07", "mean, log10 nM": "-0.25", "control signals": "3 of 18 (2.59)"}
{"CDR-H1": "GFDLNEYGIS", "CDR-H2": "VIYADGLRTAYADDVK", "CDR-H3": "GNNAGTFDI", "group": "En_Gen", "log10 Kd (nM) by replicate": "-0.33 -0.33 -0.47 -0.77 -0.49 -0.63", "mean, log10 nM": "-0.50", "control signals": "0 of 18"}
{"CDR-H1": "GFTLNSYGIS", "CDR-H2": "VIYSDGFRTFYQDSVK", "CDR-H3": "GRAAKTFDS", "group": "Ctrl", "log10 Kd (nM) by replicate": "nd nd nd nd nd nd", "mean, log10 nM": "nd", "control signals": "1 of 18 (2.79)"}
{"CDR-H1": "GFTLNQYGIS", "CDR-H2": "VIYSDGRRTCYSDSVK", "CDR-H3": "GRAAGFFDS", "group": "Rand", "log10 Kd (nM) by replicate": "nd nd nd nd nd nd", "mean, log10 nM": "nd", "control signals": "0 of 18"}
{"CDR-H1": "GFDLQEYGIS", "CDR-H2": "VIYADGKRTKVTDNVK", "CDR-H3": "GQVTGTAFT", "group": "En_Gibbs", "log10 Kd (nM) by replicate": "nd nd nd nd nd nd", "mean, log10 nM": "nd", "control signals": "0 of 18"}
{"CDR-H1": "GFTLNSYGIS", "CDR-H2": "VIYSDGRRTFYADSVK", "CDR-H3": "GQAAGTFDS", "group": "Ctrl+GPLM_Gen", "log10 Kd (nM) by replicate": "1.50 0.60 0.58 0.50 0.41 0.89; nd nd nd nd nd nd", "mean, log10 nM": "0.75", "control signals": "0 of 36"}
{"CDR-H1": "GFDLNSYGIS", "CDR-H2": "VIYSDGRRTFYGDSVK", "CDR-H3": "NYAAGTFDS", "group": "Ctrl", "log10 Kd (nM) by replicate": "nd nd nd nd nd nd", "mean, log10 nM": "nd", "control signals": "0 of 18"}
{"CDR-H1": "GFNLDEYGIS", "CDR-H2": "VIYADGHRMFVSNSVK", "CDR-H3": "GENADFLFV", "group": "En_Gibbs", "log10 Kd (nM) by replicate": "nd nd nd nd nd nd", "mean, log10 nM": "nd", "control signals": "0 of 18"}
{"CDR-H1": "GFTLNQYGIS", "CDR-H2": "VIYSDGRRTSYGDSVK", "CDR-H3": "GFATGTFDS", "group": "Ctrl", "log10 Kd (nM) by replicate": "0.79 0.31 1.30 0.36 0.35 0.61", "mean, log10 nM": "0.62", "control signals": "0 of 18"}
{"CDR-H1": "GFDLDEYGIS", "CDR-H2": "VIYADGVRKAYADDVK", "CDR-H3": "GNNAGTFDV", "group": "En_Gen", "log10 Kd (nM) by replicate": "-0.39 -0.57 -0.42 -0.59 -0.33 -0.31", "mean, log10 nM": "-0.44", "control signals": "2 of 18 (1.87)"}
{"CDR-H1": "GFTLDSYGIS", "CDR-H2": "VIYSDGRRTFYHDSVK", "CDR-H3": "GAAPGTFDS", "group": "Ctrl", "log10 Kd (nM) by replicate": "nd nd 0.88 1.57 2.17 1.27", "mean, log10 nM": "1.47", "control signals": "0 of 18"}
{"CDR-H1": "GFNLEDYGIS", "CDR-H2": "VIYADGHRASMVESVK", "CDR-H3": "GHLAGTFDE", "group": "En_Gibbs", "log10 Kd (nM) by replicate": "0.32 0.35 0.51 -0.06 0.14 0.51", "mean, log10 nM": "0.30", "control signals": "0 of 18"}
{"CDR-H1": "GFWLNSYGIS", "CDR-H2": "VIYSDGRRTFYSDQVK", "CDR-H3": "GRAAGTFDS", "group": "Ctrl", "log10 Kd (nM) by replicate": "2.06 nd 2.57 2.10 2.02 2.38", "mean, log10 nM": "2.23", "control signals": "0 of 18"}
{"CDR-H1": "GFDLNEYGIS", "CDR-H2": "VIYADGVRTAYIDSVK", "CDR-H3": "GNNAGTFDI", "group": "En_Gen", "log10 Kd (nM) by replicate": "-0.41 -0.27 -0.30 -0.45 -0.55 -0.43", "mean, log10 nM": "-0.40", "control signals": "1 of 18 (2.05)"}
{"CDR-H1": "GFNLNSYGIS", "CDR-H2": "VIYSDGRRTFYGDMVK", "CDR-H3": "GRQAGTFDS", "group": "GP_Gen", "log10 Kd (nM) by replicate": "nd nd nd nd nd nd", "mean, log10 nM": "nd", "control signals": "0 of 18"}
{"CDR-H1": "GFTLNSYGIS", "CDR-H2": "VIYSDGRRTFYDDDVK", "CDR-H3": "GQEAGTFDS", "group": "GP_HC", "log10 Kd (nM) by replicate": "1.38 nd 1.53 nd 2.67 nd", "mean, log10 nM": "1.86", "control signals": "0 of 18"}
{"CDR-H1": "GFTLNSYGIS", "CDR-H2": "VIYSDGRRTFYADSVK", "CDR-H3": "GRAAVTFDS", "group": "GP_HC", "log10 Kd (nM) by replicate": "2.57 1.09 2.10 2.54 2.92 2.02", "mean, log10 nM": "2.21", "control signals": "0 of 18"}
{"CDR-H1": "GFTLNSYGIS", "CDR-H2": "VIYSDGRRTFYTDSVK", "CDR-H3": "GRAAGTFDL", "group": "Ctrl", "log10 Kd (nM) by replicate": "nd nd nd nd -0.44 nd", "mean, log10 nM": "-0.44", "control signals": "0 of 18"}
{"CDR-H1": "GFNLDEYGIS", "CDR-H2": "VIYADGMRTFYADSVK", "CDR-H3": "GEVAGTFDV", "group": "En_Gen", "log10 Kd (nM) by replicate": "-0.07 -0.18 -0.39 -0.49 -0.31 -0.25", "mean, log10 nM": "-0.28", "control signals": "0 of 18"}
{"CDR-H1": "GFDLNEYGIS", "CDR-H2": "VIYADGRRTAYADSVK", "CDR-H3": "GTNAGTFDM", "group": "En_Gen", "log10 Kd (nM) by replicate": "0.82 0.17 0.22 0.77 0.51 0.64", "mean, log10 nM": "0.52", "control signals": "0 of 18"}
{"CDR-H1": "GFDLNEYGIS", "CDR-H2": "VIYADGRRTFYSDSVK", "CDR-H3": "GTVGGTFDI", "group": "En_HC", "log10 Kd (nM) by replicate": "0.54 0.85 0.56 1.71 0.62 1.00", "mean, log10 nM": "0.88", "control signals": "0 of 18"}
{"CDR-H1": "GFTLNEYGIS", "CDR-H2": "VIYSDGRRTFYSDSVK", "CDR-H3": "GQEAGTFDN", "group": "GP_HC", "log10 Kd (nM) by replicate": "nd nd nd nd nd nd", "mean, log10 nM": "nd", "control signals": "0 of 18"}
{"CDR-H1": "GFTLDSYGIS", "CDR-H2": "VIYSDGRRTGYGDSVK", "CDR-H3": "GRAAGTFDS", "group": "Ctrl", "log10 Kd (nM) by replicate": "nd -0.05 -0.31 -0.22 nd 0.28", "mean, log10 nM": "-0.07", "control signals": "0 of 18"}

The 2 strongest on average among those seen in every replicate, once more:

{"CDR-H1": "GFDLNEYGIS", "CDR-H2": "VIYADGLRTAYADDVK", "CDR-H3": "GNNAGTFDI", "group": "En_Gen", "log10 Kd (nM) by replicate": "-0.33 -0.33 -0.47 -0.77 -0.49 -0.63", "mean, log10 nM": "-0.50", "control signals": "0 of 18"}
{"CDR-H1": "GFDLDEYGIS", "CDR-H2": "VIYADGVRKAYADDVK", "CDR-H3": "GNNAGTFDV", "group": "En_Gen", "log10 Kd (nM) by replicate": "-0.39 -0.57 -0.42 -0.59 -0.33 -0.31", "mean, log10 nM": "-0.44", "control signals": "2 of 18 (1.87)"}

From the AlphaSeq antibody data of Li et al. 2023 (doi:10.1038/s41467-023-39022-2), copy in the FLAb collection.